Two molecules from PubChem BioAssay AID878 (University of Pittsburgh Molecular Library Screening Center, 2007) can be followed below.

Only a part is listed here, and it is no random draw. The source made the active and inactive calls.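 Rule for the calls: active = activation of at least 50% relative to the plate's high and low controls in the primary single-dose screen; inactive = activation below 50%.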

A short description of the experiment: compounds producing H2O2 with reducing agent – biochemical, NIH compound library profiling, artefact control for MLSCN library redox annotation, primary screen (AID 878).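 Note: compound incubated with DTT at 0.8 mM final as the reducing agent.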 Conditions: DTT-dependent redox cycling H2O2, phenol red/HRP absorbance; at 10 µM; stronger effect = higher value; 100% = 100 µM peroxide control, 0% = buffer.
Regarding `CCc1ccc(OP(C)(=O)Nc2cccnc2)cc1` (configuration not stated), the activation was inactive: -2.1%. For `CCOP(C)(=S)SCC(=O)NC(C)(CC)C(=O)O` (configuration not stated), the activation was inactive: 3.23%.
